Source: ChEMBL document CHEMBL3603781, “Discovery of substituted (4-phenyl-1H-imidazol-2-yl)methanamine as potent somatostatin receptor 3 agonists” (Bioorg Med Chem Lett, 2015)

Amino acid sequences for entries named in this document (tags omitted). A change or cut given only in a name is not applied to a line headed by its entry.
UniProt P32745: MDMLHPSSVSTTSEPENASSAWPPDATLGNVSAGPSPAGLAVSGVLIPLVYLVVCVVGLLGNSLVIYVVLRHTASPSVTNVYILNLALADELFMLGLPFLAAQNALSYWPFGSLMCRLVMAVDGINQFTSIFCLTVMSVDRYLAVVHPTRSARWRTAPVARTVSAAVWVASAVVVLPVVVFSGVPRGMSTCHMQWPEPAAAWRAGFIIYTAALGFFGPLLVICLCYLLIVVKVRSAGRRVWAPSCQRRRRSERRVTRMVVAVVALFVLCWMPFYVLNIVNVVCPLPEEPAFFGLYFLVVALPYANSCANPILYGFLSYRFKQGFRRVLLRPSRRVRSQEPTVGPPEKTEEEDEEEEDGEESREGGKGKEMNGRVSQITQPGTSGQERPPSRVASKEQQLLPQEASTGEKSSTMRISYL

Molecular target: Somatostatin receptor type 3 (Homo sapiens, UniProt P32745)
Assay: Agonist activity at human SSTR3 expressed in CHO cells assessed as intracellular cAMP level after 45 mins by time-resolved fluorescence assay relative to control
Assay type: functional, cell-based

Q: Which Activity does the source give for `Cc1ccc(-c2c[nH]c(C3(NCc4c[nH]c5ccccc45)CC3)n2)cc1` here?
A: 23%

Q: Which Activity does the source give for `Cc1ccc(-c2c[nH]c(C3(NCc4cncnc4)CCCC3)n2)cc1` here?
A: 63%
